AlphaSeq binding of Ab-14 light chain variants to a spike HR2 peptide

Reference: Engelhart et al. 2022, doi:10.1038/s41597-022-01779-4. File: FLAb, binding data.

Binding partner: SARS-CoV-2 spike HR2 peptide, sequence PDVDLGDISGINAS.

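Library AAYL50 holds single substitutions and randomly drawn double and triple substitutions in the CDRs. In AlphaSeq, yeast of one mating type display the scFv and yeast of the other type display the target. The frequency of each diploid, read from paired DNA barcodes, reflects how well the two displayed proteins bind. A regression on co-assayed BCL2-family reference pairs converts the normalised counts of each replicate to an apparent Kd. The assay was run in three technical replicates.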

Each scFv is VH, a (GGGGS)3 linker, VL, as in the parent Ab-14, and differs from it in the CDRs of the light chain only.
VH: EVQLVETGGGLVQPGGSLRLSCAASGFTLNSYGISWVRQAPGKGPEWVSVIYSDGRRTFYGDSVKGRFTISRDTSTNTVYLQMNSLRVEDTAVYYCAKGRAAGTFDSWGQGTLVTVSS
VL: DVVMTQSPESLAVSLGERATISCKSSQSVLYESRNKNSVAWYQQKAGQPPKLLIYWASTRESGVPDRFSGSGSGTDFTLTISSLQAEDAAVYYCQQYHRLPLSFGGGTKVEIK

Positions count from residue 1 of the parent VL; K24V puts V in place of K. This list gathers variants with a substitution at E32 (VL, numbered from residue 1). The read-out is the apparent dissociation constant on a log10 scale (nM): the lower, the stronger. Averages over replicates are reported, and they cover detected replicates only. An entry "n.d." has no value in the source: the pair was not observed among the diploids in that replicate. This suggests poor binding but is not conclusive.

changes,log10 Kd (nM) by replicate,"log10 Kd (nM), mean"
K24V E32I S103C,n.d. / n.d. / n.d.,n.d.
S26F E32D,n.d. / n.d. / n.d.,n.d.
E32G R99P,n.d. / n.d. / n.d.,n.d.
L30M E32M L100M,3.65 / 3.20 / 5.06,3.97
E32W V39R S103E,n.d. / n.d. / n.d.,n.d.
Y31K E32M L102S,2.17 / 2.62 / 2.77,2.52
E32M R34M Q96K,2.69 / 2.68 / 2.96,2.78
S25F E32G T59E,n.d. / n.d. / n.d.,n.d.
E32D K36P A40D,n.d. / n.d. / n.d.,n.d.
E32Y R34I Y97M,n.d. / n.d. / n.d.,n.d.
E32L S38I S103E,n.d. / n.d. / n.d.,n.d.
E32A W56Y Q95N,0.73 / 0.83 / 0.99,0.85
Q27N E32V S38F,n.d. / 3.40 / n.d.,3.40
E32M N37R V39N,n.d. / n.d. / n.d.,n.d.
Q27V E32R A40P,n.d. / n.d. / 5.46,5.46
Q27S E32Y W56S,-0.62 / -0.21 / -0.51,-0.45
S26Y E32Y S58Y,n.d. / n.d. / n.d.,n.d.
E32C T59Y R60F,n.d. / n.d. / 2.62,2.62
E32V P101N,2.37 / 2.21 / 2.48,2.36
E32P S33C N35C,2.81 / 2.37 / 3.12,2.77
S28D E32H E61S,0.70 / 1.46 / 0.73,0.96
E32D Q96V,1.23 / 1.37 / 1.53,1.37
E32P N37S S38A,1.56 / 1.68 / 1.72,1.65
Q27L E32H Q95L,n.d. / n.d. / n.d.,n.d.
V29M E32Q Y97W,n.d. / 3.62 / n.d.,3.62
Y31F E32Y S33R,n.d. / n.d. / n.d.,n.d.
E32T H98P,n.d. / n.d. / n.d.,n.d.
E32C Q96W L102P,5.11 / 4.71 / 4.38,4.73
E32L S62P P101A,n.d. / n.d. / n.d.,n.d.
Q27A E32D P101I,n.d. / n.d. / n.d.,n.d.
S26K E32Q,2.52 / 2.00 / 2.71,2.41
V29S E32H H98A,n.d. / n.d. / n.d.,n.d.
E32T Q96N S103K,3.90 / 3.24 / 4.11,3.75
E32I T59D E61H,2.87 / 2.45 / 3.14,2.82
Y31M E32V S38G,n.d. / n.d. / n.d.,n.d.
L30I E32V A57G,2.03 / 1.47 / 2.60,2.03
E32N S33N,0.86 / 1.06 / 1.00,0.97
Y31G E32V S33I,1.10 / 1.22 / 1.31,1.21
E32C S38N A40T,n.d. / n.d. / n.d.,n.d.
E32W K36F R99K,2.12 / 2.08 / 2.69,2.30
E32S S38E E61I,n.d. / n.d. / n.d.,n.d.
E32V S62E Q96V,n.d. / n.d. / n.d.,n.d.

The 5 strongest on average among those seen in every replicate, once more:

changes,log10 Kd (nM) by replicate,"log10 Kd (nM), mean"
Q27S E32Y W56S,-0.62 / -0.21 / -0.51,-0.45
E32A W56Y Q95N,0.73 / 0.83 / 0.99,0.85
S28D E32H E61S,0.70 / 1.46 / 0.73,0.96
E32N S33N,0.86 / 1.06 / 1.00,0.97
Y31G E32V S33I,1.10 / 1.22 / 1.31,1.21

Three control strains display no target. For library AAYL50, 18% of the pairings with them gave a signal, with a median of 4.19 and one signal in twenty below 2.99, so weak values seen in few replicates may be background.